From paper PMC8748767 (Nature Communications, 2022) come the findings set out here.

Values joined by “and” are separate entries in the source; they are usually repeats but may differ in a detail not shown here. Equal values may be shown once.

Data set [1] concerns the molecule itself. Kind of data set: cryo-EM structure; no dopamine added (apo-TH; THS40p); vitrified on UltraAufoil grids; D2 symmetry applied.
Data set [2] concerns the molecule itself. The data set can be described thus: SEC; gel filtration of purified TH on Superdex 200 Increase 3.2/300, 4 °C.

B1: Tyrosine hydroxylase phosphorylated on S40 (THS40p) (enzyme)
chain: not shown
modifications: phosphoserine at 40 (phosphorylation stoichiometry 0.98 ± 0.03)
notes: human tyrosine hydroxylase, isoform TH1; numbers count on: isoform TH1; The reconstruction was made with D2 symmetry imposed; also called S40 phosphorylated TH; pS40-TH; source: recombinant TH purified as m1, then phosphorylated in vitro with the catalytic subunit of cAMP-dependent protein kinase; not shown: His, N-terminal, cleaved; MBP, N-terminal, cleaved
For B1, in data set [1], the binding result is reported as “binds”.

B2: Tyrosine hydroxylase, full-length human isoform TH1 (enzyme)
chain: not shown
notes: human tyrosine hydroxylase, isoform TH1 (the shortest isoform; models end at residue 497; TH4 is 31 residues longer); numbers count on: isoform TH1; TH(DA) is the same protein incubated with ferrous ammonium sulfate (1:1) and dopamine (2:1 per subunit); also called apo-TH; not shown: His, N-terminal, cleaved; MBP, N-terminal, cleaved
As to B2, the stoichiometry N (as a rule, the number of molecules, sites or subunits per partner or assembly) in data set [2] was 4 and 8.
